From patent US12377086B2, “Therapeutic methods, combinations and kits” (priority 2021, dated 2025)
Read-outs that look alike come from different tables or passages of the source.

Protein sequences, listed by entry. Tags and fused reporters are not part of them.
UniProt C7C422, whole entry, looked up, species assumed: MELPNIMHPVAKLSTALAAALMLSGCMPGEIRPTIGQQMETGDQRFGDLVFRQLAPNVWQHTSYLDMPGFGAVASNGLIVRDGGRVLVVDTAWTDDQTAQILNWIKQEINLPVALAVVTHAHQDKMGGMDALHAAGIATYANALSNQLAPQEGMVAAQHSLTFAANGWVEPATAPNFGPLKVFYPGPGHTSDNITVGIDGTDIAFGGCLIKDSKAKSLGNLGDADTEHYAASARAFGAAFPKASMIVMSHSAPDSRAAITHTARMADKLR

Columns and labels:
Format in all cases: biochemical
NDM-1 [1] = biological target: T1, NDM-1 (Klebsiella pneumoniae, UniProt C7C422); conditions: 50 μM compound, 5 nM MBL, 10 μM nitrocefin, 30 mins
NDM-1 [2] = biological target: T1, NDM-1; test: Dose response enzymatic inhibition assay and inhibition constant, NDM-1; conditions: for IC50: 5 nM MBL, 10 μM nitrocefin; for NDM-1 LE (ligand efficiency): LE = −1.38 log (Ki)/N, N = number of heavy atoms
VIM-2 = VIM-2 (Pseudomonas aeruginosa, UniProt Q5U7L7); test: biochemical
[3] = nitrocefin substrate, competitive-inhibition fit, read-out: NDM-1 Ki

Cc1ccc2c(Cl)cc(Cl)c(O)c2n1 [Compound 50]
NDM-1 percentage inhibition (NDM-1 [1]): 93% | IC50 (NDM-1 [2]): 5.3 µM | NDM-1 LE (ligand efficiency) (NDM-1 [2]): 0.59 | Ki (NDM-1 [2]; [3]): 1.1 µM

Nc1ccc(O)c2ncccc12 [Compound 42]
NDM-1 percentage inhibition (NDM-1 [1]): 86% | IC50 (NDM-1 [2]): 1.7 µM | NDM-1 LE (ligand efficiency) (NDM-1 [2]): 0.69 | Ki (NDM-1 [2]; [3]): 0.99 µM

Oc1c(I)cc(Cl)c2cccnc12 [Compound 48, Clioquinol, reference compound]
NDM-1 percentage inhibition (NDM-1 [1]): 89% | IC50 (NDM-1 [2]): 4.8 µM | NDM-1 LE (ligand efficiency) (NDM-1 [2]): 0.63 | Ki (NDM-1 [2]; [3]): 1.2 µM

O=C(O)c1cnc2c(O)cccc2c1 [Compound 43]
NDM-1 percentage inhibition (NDM-1 [1]): 90% | IC50 (NDM-1 [2]): 1.9 µM | NDM-1 LE (ligand efficiency) (NDM-1 [2]): 0.62 | Ki (NDM-1 [2]; [3]): 0.49 µM

O=C(O)c1ccnc2c(O)cccc12 [Compound 44]
NDM-1 percentage inhibition (NDM-1 [1]): 88% | Ki (VIM-2; nitrocefin substrate, competitive-inhibition fit): 0.67 µM | IC50 (NDM-1 [2]): 1.9 µM | NDM-1 LE (ligand efficiency) (NDM-1 [2]): 0.61 | Ki (NDM-1 [2]; [3]): 0.66 µM

Oc1ccc(Cl)c2cccnc12 [Compound 46]
NDM-1 percentage inhibition (NDM-1 [1]): 94% | IC50 (NDM-1 [2]): 5.3 µM | NDM-1 LE (ligand efficiency) (NDM-1 [2]): 0.67 | Ki (NDM-1 [2]; [3]): 1.4 µM

Oc1c(Br)cc(Br)c2cccnc12 [Compound 49]
NDM-1 percentage inhibition (NDM-1 [1]): 93%

O=C(O)c1ccc2cccnc2c1O [Compound 45, 8-hydroxyquinoline-7-carboxylic acid]
IC50 (VIM-2): 0.74 µM | IC50 (NDM-1 [2]): 0.76 µM | Ki (NDM-1 [2]; [3]): 0.35 µM | Ki (NDM-1 [2]; read-out: Ki against NDM-1): 0.35 µM

Oc1c(Cl)cc(Cl)c2cccnc12 [Compound 47]
NDM-1 percentage inhibition (NDM-1 [1]): 90% | IC50 (NDM-1 [2]): 6.4 µM | NDM-1 LE (ligand efficiency) (NDM-1 [2]): 0.62 | Ki (NDM-1 [2]; [3]): 1.3 µM

O=[N+]([O-])c1ccc(O)c2ncccc12 [Compound 41]
NDM-1 percentage inhibition (NDM-1 [1]): 89% | IC50 (NDM-1 [2]): 1 µM | NDM-1 LE (ligand efficiency) (NDM-1 [2]): 0.61 | Ki (NDM-1 [2]; [3]): 0.58 µM
